Laboratory results published in patent US20110052537A1, “NITRO-BASED EXPLOSIVE REMEDIATION” (published 2011).
Some compounds may have been tested in ways that are not shown here.

Assay: Absorption and distribution of [14C]TNT in sheep
Settings: oral 35.5 mg; for % of [14C]TNT dose in tissues, total / % of [14C]TNT dose in tissues: adipose / % of [14C]TNT dose in tissues: bile / % of [14C]TNT dose in tissues: blood / % of [14C]TNT dose in tissues: bone / % of [14C]TNT dose in tissues: brain / % of [14C]TNT dose in tissues: eye / % of [14C]TNT dose in tissues: heart / % of [14C]TNT dose in tissues: kidney / % of [14C]TNT dose in tissues: large intestine content / % of [14C]TNT dose in tissues: large intestine tissue / % of [14C]TNT dose in tissues: liver / % of [14C]TNT dose in tissues: lung / % of [14C]TNT dose in tissues: remainder of carcass / % of [14C]TNT dose in tissues: rumen content / % of [14C]TNT dose in tissues: rumen tissue / % of [14C]TNT dose in tissues: skeletal muscle / % of [14C]TNT dose in tissues: skin / % of [14C]TNT dose in tissues: small intestine content / % of [14C]TNT dose in tissues: small intestine tissue / % of [14C]TNT dose in tissues: spleen / % of [14C]TNT dose in tissues: thyroid: at slaughter

Substance: 2,4,6-trinitro-[^14C]toluene
- % of [14C]TNT dose in cage wash (wether 368): 0.2%
- % of [14C]TNT dose in feces T0-6 (wether 368): 0.2%
- % of [14C]TNT dose in feces T6-12 (wether 368): 2.7%
- % of [14C]TNT dose in feces T12-18 (wether 368): 11.4%
- % of [14C]TNT dose in feces T18-24 (wether 368): 6.6%
- % of [14C]TNT dose in feces T24-32 (wether 368): 11.7%
- % of [14C]TNT dose in feces T32-40 (wether 368): 14.8%
- % of [14C]TNT dose in feces T40-48 (wether 368): 9.4%
- % of [14C]TNT dose in feces T48-60 (wether 368): 11.4%
- % of [14C]TNT dose in feces T60-72 (wether 368): 5.8%
- % of [14C]TNT dose in feces, total (wether 368): 74.0%
- % of [14C]TNT dose in urine T0-6 (wether 368): 13.7%
- % of [14C]TNT dose in urine T6-12 (wether 368): 2.6%
- % of [14C]TNT dose in urine T12-18 (wether 368): 0.8%
- % of [14C]TNT dose in urine T18-24 (wether 368): 0.3%
- % of [14C]TNT dose in urine T24-32 (wether 368): 0.2%
- % of [14C]TNT dose in urine T32-40 (wether 368): 0.2%
- % of [14C]TNT dose in urine T40-48 (wether 368): 0.1%
- % of [14C]TNT dose in urine T48-60 (wether 368): 0.2%
- % of [14C]TNT dose in urine T60-72 (wether 368): 0.1%
- % of [14C]TNT dose in urine, total (wether 368): 18.2%
- total recovery (%) of [14C]TNT dose (wether 368): 99.7%
- % of [14C]TNT dose in tissues, total (wether 368): 7.31%
- % of [14C]TNT dose in tissues: adipose (wether 368): 0.00%
- % of [14C]TNT dose in tissues: bile (wether 368): 0.00%
- % of [14C]TNT dose in tissues: blood (wether 368): 0.00%
- % of [14C]TNT dose in tissues: bone (wether 368): 0.00%
- % of [14C]TNT dose in tissues: brain (wether 368): 0.00%
- % of [14C]TNT dose in tissues: eye (wether 368): 0.01%
- % of [14C]TNT dose in tissues: heart (wether 368): 0.00%
- % of [14C]TNT dose in tissues: kidney (wether 368): 0.01%
- % of [14C]TNT dose in tissues: large intestine content (wether 368): 3.02%
- % of [14C]TNT dose in tissues: large intestine tissue (wether 368): 0.02%
- % of [14C]TNT dose in tissues: liver (wether 368): 0.06%
- % of [14C]TNT dose in tissues: lung (wether 368): 0.00%
- % of [14C]TNT dose in tissues: remainder of carcass (wether 368): 0.03%
- % of [14C]TNT dose in tissues: rumen content (wether 368): 3.84%
- % of [14C]TNT dose in tissues: rumen tissue (wether 368): 0.09%
- % of [14C]TNT dose in tissues: skeletal muscle (wether 368): 0.00%
- % of [14C]TNT dose in tissues: skin (wether 368): 0.06%
- % of [14C]TNT dose in tissues: small intestine content (wether 368): 0.15%
- % of [14C]TNT dose in tissues: small intestine tissue (wether 368): 0.02%
- % of [14C]TNT dose in tissues: spleen (wether 368): 0.00%
- % of [14C]TNT dose in tissues: thyroid (wether 368): 0.00%
- % of [14C]TNT dose in cage wash (wether 370): 0.4%
- % of [14C]TNT dose in feces T0-6 (wether 370): 0.2%
- % of [14C]TNT dose in feces T6-12 (wether 370): 3.3%
- % of [14C]TNT dose in feces T12-18 (wether 370): 12.1%
- % of [14C]TNT dose in feces T18-24 (wether 370): 10.7%
- % of [14C]TNT dose in feces T24-32 (wether 370): 15.8%
- % of [14C]TNT dose in feces T32-40 (wether 370): 16.3%
- % of [14C]TNT dose in feces T40-48 (wether 370): 8.6%
- % of [14C]TNT dose in feces T48-60 (wether 370): 8.8%
- % of [14C]TNT dose in feces T60-72 (wether 370): 3.3%
- % of [14C]TNT dose in feces, total (wether 370): 79.1%
- % of [14C]TNT dose in urine T0-6 (wether 370): 11.5%
- % of [14C]TNT dose in urine T6-12 (wether 370): 2.6%
- % of [14C]TNT dose in urine T12-18 (wether 370): 0.6%
- % of [14C]TNT dose in urine T18-24 (wether 370): 0.4%
- % of [14C]TNT dose in urine T24-32 (wether 370): 0.2%
- % of [14C]TNT dose in urine T32-40 (wether 370): 0.2%
- % of [14C]TNT dose in urine T40-48 (wether 370): 0.2%
- % of [14C]TNT dose in urine T48-60 (wether 370): 0.1%
- % of [14C]TNT dose in urine T60-72 (wether 370): 0.1%
- % of [14C]TNT dose in urine, total (wether 370): 15.9%
- total recovery (%) of [14C]TNT dose (wether 370): 98.9%
- % of [14C]TNT dose in tissues, total (wether 370): 3.53%
- % of [14C]TNT dose in tissues: adipose (wether 370): 0.00%
- % of [14C]TNT dose in tissues: bile (wether 370): 0.00%
- % of [14C]TNT dose in tissues: blood (wether 370): 0.00%
- % of [14C]TNT dose in tissues: bone (wether 370): 0.05%
- % of [14C]TNT dose in tissues: brain (wether 370): 0.00%
- % of [14C]TNT dose in tissues: eye (wether 370): 0.00%
- % of [14C]TNT dose in tissues: heart (wether 370): 0.00%
- % of [14C]TNT dose in tissues: kidney (wether 370): 0.01%
- % of [14C]TNT dose in tissues: large intestine content (wether 370): 1.78%
- % of [14C]TNT dose in tissues: large intestine tissue (wether 370): 0.01%
- % of [14C]TNT dose in tissues: liver (wether 370): 0.08%
- % of [14C]TNT dose in tissues: lung (wether 370): 0.01%
- % of [14C]TNT dose in tissues: remainder of carcass (wether 370): 0.02%
- % of [14C]TNT dose in tissues: rumen content (wether 370): 1.36%
- % of [14C]TNT dose in tissues: rumen tissue (wether 370): 0.03%
- % of [14C]TNT dose in tissues: skeletal muscle (wether 370): 0.03%
- % of [14C]TNT dose in tissues: skin (wether 370): 0.08%
- % of [14C]TNT dose in tissues: small intestine content (wether 370): 0.06%
- % of [14C]TNT dose in tissues: small intestine tissue (wether 370): 0.01%
- % of [14C]TNT dose in tissues: spleen (wether 370): 0.00%
- % of [14C]TNT dose in tissues: thyroid (wether 370): 0.00%
